{
  "source": "patent US20130225529A1",
  "about": "“PHOSPHO-ESTER DERIVATIVES AND USES THEREOF” (priority 2012, published 2013)",
  "key": {"[1]": {"test": "Pharmacokinetic study of phosphosulindac amide and sulindac, single oral dose", "type": "in vivo, mice"}, "[2]": {"system": "A431 human squamous cell carcinoma cells", "test": "Skin cancer intradermal model", "type": "in vivo, mice", "settings": "hydrogel, topical, 2 weeks, estimated 80 mg/kg"}, "[3]": {"system": "AGS human gastric cancer cells", "test": "Gastric cancer subcutaneous model", "type": "in vivo, mice", "settings": "i.p. in corn oil, 3 weeks; PSA-B 200, PSA-G 200, PIA-B 160, PVA-T 100 mg/kg"}, "[4]": {"system": "SW-480 colon cancer cells", "test": "SW-480 colon cancer xenografts, PSA", "settings": "100 mg/kg/day oral, end of study, vs control"}, "[5]": {"system": "intestinal tumors of Apc^Min/+ mice", "test": "Efficacy in Apc^Min/+ mice, PSA", "settings": "100 mg/kg/d oral gavage, 6 weeks, vs control"}},
  "data": [
    {"smiles": "CCOP(=O)(OCC)OCCCCNC(=O)CC1=C(C)C(=Cc2ccc([S+](C)[O-])cc2)c2ccc(F)cc21", "note": "(stereo not shown)", "values": [
      {"measurement": "blood and tissue levels of intact compound", "setting": "[1]; compared with corresponding carboxylic ester compound", "result": "significant blood and tissue levels of intact compound"},
      {"measurement": "Cmax", "setting": "[1]; read-out: Cmax of PSA, single oral dose 100 mg/kg PSA", "result": 24, "unit": "µM"},
      {"measurement": "detection of intact PSA in serum", "setting": "[1]; single oral dose 100 mg/kg", "result": "undetectable at 24 hours"},
      {"measurement": "generation of sulindac or sulindac sulfone", "setting": "[1]; single oral dose 100 mg/kg", "result": "no detectable sulindac or sulindac sulfone"},
      {"measurement": "Tmax of PSA", "setting": "[1]; single oral dose 100 mg/kg PSA", "result": 15, "unit": "min"},
      {"measurement": "AUC0-24 h, PSA administration", "setting": "[1]; single oral dose 100 mg/kg PSA, label = analyte", "result": 54.04, "unit": "µM·h"},
      {"measurement": "tumor growth inhibition", "setting": "[2]", "result": 81.1, "unit": "%"},
      {"measurement": "tumor growth inhibition", "setting": "[3]", "result": 67.7, "unit": "%"},
      {"measurement": "reduction of growth of colon cancer xenografts", "setting": "[4]", "result": 41, "unit": "%"},
      {"measurement": "reduction of number of all intestinal tumors", "setting": "[5]", "result": 85, "unit": "%"}
    ]}
  ]
}
